According to patent US20260076970A1, “CANCER TREATMENT USING MTDP INHIBITORS AND PLK1 INHIBITORS” (Cardiff Oncology, Inc., priority 2022, published 2026):

Test system: cell lines, from both solid and hematologic tumors
Assay: proliferation assays
Conditions: large number of cell lines

CN1CCN(c2ccc(OC(F)(F)F)c(Nc3ncc4c(n3)-c3c(c(C(N)=O)nn3CCO)CC4)c2)CC1 [onvansertib, 1-(2-hydroxyethyl)-8-{[5-(4-methylpiperazin-1-yl)-2-(trifluoromethoxy)phenyl]amino}-4,5-dihydro-1H-pyrazolo[4,3-h]quinazoline-3-carboxamide]
potency in proliferation assays: low nanomolar activity
